Tests used:
[1] = organism: Mus musculus; assay: Protecting activity after paraoxon induced toxicity.
[2] = Therapeutic index is the ratio of LD50 to ED50
[3] = organism: Oryctolagus cuniculus; assay: Ability to inhibit neuromuscular transmission in rabbit was determined
[4] = organism: Mus musculus; assay: Percent survival of the mice after a fractional dose of 25 at 0.5 hr of pretreatment with paraoxon
[5] = organism: Mus musculus; assay: Percent survival of the mice after a fractional dose of 12 at 2 hr of pretreatment with paraoxon
[6] = organism: Mus musculus; assay: Percent survival of the mice after a fractional dose of 37 at 0.5 hr of pretreatment with paraoxon
[7] = organism: Mus musculus; assay: Percent survival of the mice after a fractional dose of 0 at 2 hr of pretreatment with paraoxon
[8] = test system: Mus musculus; assay: Tested for its ability to protect mice against paraoxon-induced lethality; no death to 2079 uM/Kg; conditions: in vivo
[9] = test system: Mus musculus; assay: Percent survival of the mice after a fractional dose of 88 mg/kg at 2 hr of pretreatment with paraoxon
[10] = test system: Mus musculus; assay: Percent survival of the mice after a fractional dose of 25 mg/kg at 2 hr of pretreatment with paraoxon
[11] = test system: Mus musculus; assay: Percent survival of the mice after a fractional dose of 100 mg/kg at 2 hr of pretreatment with paraoxon
[12] = organism: Mus musculus; assay: Percent survival of the mice after a fractional dose of 63 at 0.5 hr of pretreatment with paraoxon
[13] = organism: Mus musculus; assay: Percent survival of the mice after a fractional dose of 100 at 0.5 hr of pretreatment with paraoxon
[14] = organism: Mus musculus; assay: Percent survival of the mice after a fractional dose of 88 at 0.5 hr of pretreatment with paraoxon
[15] = test system: Mus musculus; assay: Percent survival of the mice after a fractional dose of 38 mg/kg at 2 hr of pretreatment with paraoxon
[16] = test system: Mus musculus; assay: Percent survival of the mice after a fractional dose of 0 mg/kg at 2 hr of pretreatment with paraoxon
[17] = organism: Mus musculus; assay: Percent survival of the mice after a fractional dose of 0 at 0.5 hr of pretreatment with paraoxon
[18] = organism: Mus musculus; assay: Percent survival of the mice after a fractional dose of 50 at 0.5 hr of pretreatment with paraoxon
[19] = organism: Mus musculus; assay: Percent survival of the mice after a fractional dose of 75 at 0.5 hr of pretreatment with paraoxon

With `CN(C)C(=O)Oc1ccc[n+](C)c1` the ED50 [1] was 1.3 µmol/kg and the Therapeutic index [2] was 8.
Compound `C[N+]1(CC(=O)c2ccc(-c3ccc(C(=O)C[N+]4(C)CCOCC4)cc3)cc2)CCOCC1` has an Activity [3] of 0.58, a Survival [4] of 1% and a Survival [5] of 1%.
`O=C(CN1CCCCC1)c1ccc(-c2ccc(C(=O)CN3CCCCC3)cc2)cc1` gave a Survival [6] of 1% and a Survival [7] of 1%.
With `O=C(CN1CCOCC1)c1ccc(-c2ccc(C(=O)CN3CCOCC3)cc2)cc1` the LD50 [8] was “no death to 2079 uM/Kg”.
With `C[N+](C)(CC(=O)c1ccc(-c2ccc(C(=O)C[N+](C)(C)CC3OCCCO3)cc2)cc1)CC1OCCCO1` the Survival [9] was 1%, the Survival [10] was 1% and the Activity [3] was 0.34. For the same compound, the Survival [11] was 1%, the Survival [12] was 1% and the Survival [13] was 1%. For the same compound, the Survival [4] was 1%, the ED50 [1] was 0.02 µmol/kg and the Survival [14] was 1%. For the same compound, the Therapeutic index [2] was 360 and the Survival [15] was 1%.
Compound `CNC(=O)Oc1ccc2c(c1)[C@]1(C)CCN(C)[C@@H]1N2C` has a Therapeutic index [2] of 60.
With `CC1C[N+](C)(CC(=O)c2ccc(-c3ccc(C(=O)C[N+]4(C)CCOC(C)C4)cc3)cc2)CCO1` (centres undefined) the Survival [16] was 1%, the Survival [12] was 1% and the Survival [14] was 1%. It also gave a Survival [17] of 1%.
For `CC1CCC[N+]1(C)CC(=O)c1ccc(-c2ccc(C(=O)C[N+]3(C)CCCC3C)cc2)cc1` (centres undefined), the Activity [3] was 0.057, the Survival [7] was 1% and the Survival [17] was 1%.
Work on `C[N+]1(CC(=O)c2ccc(-c3ccc(C(=O)C[N+]4(C)CCCCC4)cc3)cc2)CCCCC1` yielded a Survival [18] of 1%, an Activity [3] of 0.11 and a Survival [19] of 1%. It also gave a Survival [7] of 1% and a Survival [17] of 1%.
`CC1CC[N+](C)(CC(=O)c2ccc(-c3ccc(C(=O)C[N+]4(C)CCC(C)C4)cc3)cc2)C1` (centres undefined) showed an Activity [3] of 0.021 and a Survival [4] of 1%.
`C[N+]1(CC(=O)c2ccc(-c3ccc(C(=O)C[N+]4(C)CCCC4)cc3)cc2)CCCC1` showed an Activity [3] of 0.07, a Survival [7] of 1% and a Survival [17] of 1%.
`O=C(CN1CCCC1)c1ccc(-c2ccc(C(=O)CN3CCCC3)cc2)cc1` showed a Survival [7] of 1% and a Survival [17] of 1%.

— ChEMBL document CHEMBL1125045, “Hemicholinium-3 congeners as potential antagonists to organophosphate-induced toxicity” (1990)
